# Lamin A splicing – LMNA splicing modulation; hit rate 0.01% among 200,000; HeLa LMNA splicing GFP/RFP minigene ratio, 48 h; Potency, µM (series often up to 46.1 µM), without a hit: at the highest dose ratio change, negative = inhibition, most hits filed as inhibitors; active = well fitted inhibition curve with a large enough effect in the signal ratio, with a control signal flat, not every such curve was filed as active; inconclusive = small, poorly fitted or top-dose-only effect, or effect the other way, or a change in a side signal; the % refers to the signal ratio; note: potency is the fitted concentration of half-maximal effect; % is set by controls: 0 for no effect and ±100 for the full control effect
#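 S3 HeLa cells stably expressing lamin A-EGFP splicing minigene plus DsRed2, 600 cells/well, 48 h compound exposure at 37C. Laser-scanning cytometry; analysed as GFP (500-530 nm)/RFP (575-640 nm) total intensity ratio; 0.5% DMSO vehicle.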
# miR-21 reporter – raises the signal of a miR-21 reporter; Potency, µM (doses to about 38.3 µM), inactives show top-dose reporter change, positive = more light; HeLa miR-21 FLuc reporter, luciferase, 48 h; AID 2288; 340,000 tested, under 10 active; active = well fitted rising curve with a large enough effect; inconclusive = small, poorly fitted or top-dose-only effect; inactive = no such curve, though single readings can be large or run the other way;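 further: % of control where 0% means no effect; miR-21 action dims this reporter so a rising signal means less miR-21 action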
#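 HeLa cells stably expressing CMV-driven firefly luciferase with a downstream miR-21 binding sequence, endogenously expressing miR-21, were treated with titrations (up to about 40uM final) for 48 hours at 37 degree Celsius. Luciferase luminescence was read after lysis.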
# KDM4E inh – JMJD2E (human) inhibition; B2RXH2; JMJD2E catalytic domain, FDH-coupled NADH fluorescence (FDH is formaldehyde dehydrogenase); Potency, µM (series often up to 57.1 µM), without a hit: at the top dose activity change, negative = inhibition, actives largely listed as inhibitors; hit rate 1.6% among 230,000; AID 2147; active = well fitted inhibition curve with a large enough effect, not every such curve was filed as active; inconclusive = small, poorly fitted or top-dose-only effect, or another doubt; inactive = no such curve, though single readings can be large or run the other way;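 note: potency is the fitted concentration of half-maximal effect; 0% = wells with enzyme and -100% = buffer wells without enzyme; nearly all actives have a fitted effect of over 50% in size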
# G9a block – G9a (human) methyltransferase inhibition | Potency, µM (doses to about 102 µM), inactives show at the highest dose activity, negative = inhibition, hits mostly inhibitors | hit rate 8.8% among 350,000 | G9a H3K9 monomethylation, AlphaScreen, 2 h | Q96KQ7; note: potency is the fitted concentration of half-maximal effect; % is set by controls: 0 for no effect and ±100 for the full control effect; nearly all actives have a fitted effect of over 75% in size
#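 Readings reflect AlphaScreen signal from monomethyl-H3K9 antibody detection. HMT at 20 nM; substrate b-H3K9 500 nM; cofactor SAM 20 uM; 2 h RT reaction; compounds tested as titrations in qHTS with 15 min preincubation.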
# ALDH1A1 inh – ALDH1A1 (human) enzyme inhibition. P00352. Purified ALDH1A1, NADH fluorescence, propionaldehyde substrate. Potency, µM (highest dose often 75.3 µM), inactives show at the top dose activity, negative = inhibition, hits mostly inhibitors. hit rate 7.3% among 220,000; active = well fitted inhibition curve with a large enough effect, not every such curve was filed as active; inconclusive = small, poorly fitted or top-dose-only effect, or another doubt; inactive = no such curve, though single readings can be large or run the other way;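 note: potency is the fitted concentration of half-maximal effect; plate controls were no enzyme wells and a reference inhibitor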
# Sfp PPTase inh – inhibitors of Bacillus subtilis Sfp phosphopantetheinyl transferase. Q9F4F7. Biochemical Sfp PPTase activity, qHTS. Potency, µM, inactives show max response, negative = inhibition, most hits filed as inhibitors. 3.5% of 310,000 active. AID 1490; active = well fitted inhibition curve with a large enough effect; inconclusive = small, poorly fitted or top-dose-only effect, or another doubt; inactive = no such curve, though single readings can be large or run the other way;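 also: the enzyme is Sfp with the accession as filed and its product quenches rhodamine fluorescence; potency is read from the fitted curve at half-maximal effect; 0% = enzyme reaction without inhibitor and -100% = no enzyme wells; top concentration of the series not given in the record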
#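 After 15 min at room temperature with compound, 15 nM Sfp received 5 uM rhodamine-CoA plus 12.5 uM BHQ-2-ybbR (50 mM Hepes pH 7.6, 10 mM MgCl2). Rate came from the fluorescence difference over 30 min, ex 525/em 598 nm.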
# * = called active by the depositor; ? = inconclusive; . = no result given; [ ] = another dose, or the depositor's remark. This is a sample that favours compounds with a hit; in the whole collection about 13% have one here. Unless noted, calls come from the whole dose curve; as a rule, active = well fitted curve in the direction sought with a large enough effect; inconclusive = small, poorly fitted or top-dose-only effect, or another doubt; inactive = no such curve, though single readings can be large; an effect the other way counts as inactive or inconclusive.
Lamin A splicing	miR-21 reporter	KDM4E inh	G9a block	ALDH1A1 inh	Sfp PPTase inh	Molecule
?	-18%	-11%	2%[59 µM]	6%	2%	O=C(N/N=C/c1cc([N+](=O)[O-])ccc1O)NC12CC3CC(CC(C3)C1)C2
.	.	.	3%[12.7 µM]	?	10%	CS(=O)(=O)N1CCC2(CCN(c3ccccn3)CC2)CC1
13%	-18%	?	25µM*	?	25µM*	O=C(Nc1cccc2nsnc12)c1ccc(-c2cccc(Cl)c2)o1
.	0%	.	1%[59 µM]	.	.	Cc1cccc2c1-c1sc(C(=O)NCCCN3CCN(c4ccccc4F)CC3)cc1CO2
.	11%	.	35µM*	.	-26%	CN1CCN(c2ccccc2NC(=O)c2ccc(-c3cccc(Cl)c3)o2)CC1
1%	17%	?	45µM*	?	56µM*	CN1CCN(c2ccccc2NC(=O)c2ccc(-c3ccc(Cl)cc3Cl)o2)CC1
.	8%	?	.	.	35µM*	Cc1cccc2c1-c1sc(C(=O)Nc3ccccc3N3CCN(C)CC3)cc1CO2
20%	0%	?	-50%[12.7 µM]	?	-5%	CS(=O)(=O)N1CCN(c2ccccc2NC(=O)c2ccc(-c3ccc(Cl)cc3Cl)o2)CC1

Lamin A splicing	miR-21 reporter	KDM4E inh	G9a block	ALDH1A1 inh	Sfp PPTase inh	Molecule
?	-50%	?	.	1%	-17%	CCOc1ccc2nc(COC(=O)c3ccncc3)c(C(=O)c3ccccc3)[n+]([O-])c2c1
.	0%	.	-24%[59 µM]	.	.	COc1ccc(CCNC(=O)c2ccc(Cn3c(=O)c4ccccc4n(CC(=O)C(C)(C)C)c3=O)cc2)cc1OC
.	.	.	-12%[12.7 µM]	5%	1%	O=C(c1ccncc1)N1CCC2(CC1)CCN(C(c1ccccc1)c1ccccc1)CC2
?	-1%	?	?	?	28µM*	Cc1ccc2nsnc2c1NC(=O)c1ccc(-c2cc(Cl)ccc2Cl)o1
.	4%	.	25µM*	.	-29%	O=C(NCc1cccnc1)C1CC(c2ccccc2O)=NO1 (stereo not drawn)
6%[46 µM]	-4%	.	0%[59 µM]	.	.	CCOc1ccc(CNC(=O)c2cnc3sc(N(CC)CC)nn3c2=O)cc1
19%	1%	-4%	?	25µM*	-7%	Cc1cccc(-n2c(Cn3nc(C)c([N+](=O)[O-])c3C)n[nH]c2=S)c1
1%	-3%	-6%	4.5µM*	1%	4%	Cc1nn(C(C)c2n[nH]c(=S)n2-c2ccc(F)cc2)c(C)c1[N+](=O)[O-] (stereo not drawn)

# Quoted from the listing, 5 compounds:
Lamin A splicing	miR-21 reporter	KDM4E inh	G9a block	ALDH1A1 inh	Sfp PPTase inh	Molecule
.	0%	.	-24%[59 µM]	.	.	COc1ccc(CCNC(=O)c2ccc(Cn3c(=O)c4ccccc4n(CC(=O)C(C)(C)C)c3=O)cc2)cc1OC
.	.	.	-12%[12.7 µM]	5%	1%	O=C(c1ccncc1)N1CCC2(CC1)CCN(C(c1ccccc1)c1ccccc1)CC2
?	-1%	?	?	?	28µM*	Cc1ccc2nsnc2c1NC(=O)c1ccc(-c2cc(Cl)ccc2Cl)o1
.	4%	.	25µM*	.	-29%	O=C(NCc1cccnc1)C1CC(c2ccccc2O)=NO1 (stereo not drawn)
6%[46 µM]	-4%	.	0%[59 µM]	.	.	CCOc1ccc(CNC(=O)c2cnc3sc(N(CC)CC)nn3c2=O)cc1

# Later entries
Lamin A splicing	miR-21 reporter	KDM4E inh	G9a block	ALDH1A1 inh	Sfp PPTase inh	Molecule
.	-5%	?	?	-2%	15%	COc1ccccc1-n1c(CNC(=O)c2cccc([N+](=O)[O-])c2C)n[nH]c1=S
.	-9%	-5%	11µM*	5%	16%	Cc1cccc(-n2c(CNC(=O)c3cccc([N+](=O)[O-])c3C)n[nH]c2=S)c1
4%	-5%	-2%	?	1%	-16%	Cc1nn(CCc2n[nH]c(=S)n2-c2ccc(F)c(Cl)c2)c(C)c1[N+](=O)[O-]
.	.	.	-7%[12.7 µM]	.	0%	Nc1cccc2c1CN(C1CCC(=O)NC1=O)C2=O (stereo not drawn)
.	.	.	.	4%[13.5 µM]	.	O=C(O)C/C(=C\c1ccccc1)C(=O)O
.	.	.	-9%[12.7 µM]	.	.	CCOc1ccc(CN(C)c2ccc(S(=O)(=O)N3CCN(C)CC3)cc2[N+](=O)[O-])cc1OC
.	.	.	.	-2%[13.5 µM]	.	O=C(O)c1ccccc1/C=N\N=C1c2ccccc2-c2ccccc21
-16%	6%	1%	40µM*	-3%	-10%	Cc1c(C(=O)N2CCN(C(=O)c3ccco3)CC2)sc2nc(-c3ccc(F)cc3)cn12
5%	-2%	8%	?	-12%	12%	CCOC(=O)C1CCCN(C(=O)c2sc3nc(-c4ccccc4)cn3c2C)C1 (stereo not drawn)
?	-1%	-4%	-6%[12.7 µM]	10µM*	-3%	CCOC(=O)C1CCCN(C(=O)c2sc3nc(-c4ccc(F)cc4)cn3c2C)C1 (stereo not drawn)
.	-2%	.	-11%	.	12%	COc1ccccc1NC(=O)C1CCCN(S(=O)(=O)c2c(C)noc2C)C1 (stereo not drawn)

# High-throughput results as filed in PubChem BioAssay.
